Values quoted from earlier work, collected in patent US10201587B2, “Methods of inhibiting and treating biofilms using glycopeptide antibiotics” (MELINTA THERAPEUTICS, INC., priority 2008, dated 2019).

Conditions: humans, standard dose (oritavancin 200 mg); cited from earlier work

Compound: CC(=O)NC[C@H]1CN(c2ccc(N3CCOCC3)c(F)c2)C(=O)O1 [Linezolid, linezolid]
- estimated fCmax in plasma: 8 µg/mL
